The entries are a selection whose mix differs from that of the whole data set. Some compounds were tested as several samples or in several runs, with calls that do not always agree. The source made the active and inactive calls. Cut-off read from the data, not from the text of the source: active = growth inhibition above about 70%; inactive = the rest.
Assay: NCI Yeast Anticancer Drug Screen. Data for the rad18 strain (AID 177)
Settings: S. cerevisiae rad18 mutant growth inhibition, active compounds read high
Experimental: Growth inhibition of yeast strains with defined genetic alterations is measured as a screen for potential anti-cancer activity. Selected strains with alterations in DNA damage repair or cell cycle control were exposed to compounds and growth inhibition was measured relative to vehicle treated controls. The strain used in this assay is rad18

SMILES	growth inhibition (at 1.2 µM)	growth inhibition (at 3.7 µM)	growth inhibition (at 11.0 µM)	growth inhibition (at 33.0 µM)	growth inhibition (at 100.0 µM)
O=[N+]([O-])c1cc([N+](=O)[O-])c2nsnc2c1	inactive: 26%	inactive: 69%	active: 100%	active: 99%	active: 99%
NC(Cc1cnc[nH]1)C(=O)O (stereo not given)	inactive: -11%	inactive: 50%	active: 95%	active: 98%	active: 99%
O=C1OC(C(Cl)(Cl)Cl)Sc2ccccc21 (stereo not given)	inactive: 1%	inactive: 8%	inactive: 25%	inactive: 66%	active: 85%
COc1cccc(C[N+](C)(CCCl)CCCl)c1[N+](=O)[O-]	inactive: 8%	inactive: 30%	active: 73%	active: 95%	active: 96%
CC(C)c1nc(Nc2ccccc2)n(P(=O)(N(C)C)N(C)C)n1	inactive: -32%	inactive: -25%	inactive: -25%	active: 70%	active: 93%
N#Cc1cc([N+](=O)[O-])cc([N+](=O)[O-])c1N	inactive: 7%	inactive: 14%	inactive: 17%	inactive: 31%	inactive: 44%
CN(C)P(=O)(N(C)C)n1c(Nc2ccccc2)nnc1-c1ccccc1	inactive: 2%	inactive: -3%	inactive: 51%	active: 96%	active: 93%
FC1(F)SC2C(C1(F)F)C1(Cl)C(Cl)=C(Cl)C2(Cl)C1(Cl)Cl (stereo not given)	inactive: 33%	active: 95%	active: 99%	active: 98%	active: 98%

Source: PubChem BioAssay (NCI)
